Target: Kappa-type opioid receptor (Homo sapiens) (UniProt P41145)
Assay: Inhibition of kappa opioid receptor at 1 uM

Sequences of proteins named here, by UniProt entry; tags and fusion partners are left off.
UniProt P41145, whole entry: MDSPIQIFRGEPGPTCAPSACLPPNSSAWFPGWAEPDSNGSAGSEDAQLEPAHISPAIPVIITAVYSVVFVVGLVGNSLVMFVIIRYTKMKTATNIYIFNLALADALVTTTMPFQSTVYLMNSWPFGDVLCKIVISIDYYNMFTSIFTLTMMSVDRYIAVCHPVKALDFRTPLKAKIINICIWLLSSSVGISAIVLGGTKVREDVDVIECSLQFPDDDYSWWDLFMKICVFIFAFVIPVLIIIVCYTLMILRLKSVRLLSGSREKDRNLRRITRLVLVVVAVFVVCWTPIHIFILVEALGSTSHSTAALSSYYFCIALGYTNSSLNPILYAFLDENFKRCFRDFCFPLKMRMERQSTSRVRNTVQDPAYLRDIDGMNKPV

| Compound | inhibition [%] |
| --- | --- |
| Cc1cc2c(cc1F)[nH]c(=O)n2C1CCN(C2CCOCC2)CC1 | 53 |
| Cc1ccc2[nH]c(=O)n(C3CCN(C4CCOCC4)CC3)c2c1 | 40 |

Source: ChEMBL document CHEMBL2146410, “Novel N-Substituted Benzimidazolones as Potent, Selective, CNS-Penetrant, and Orally Active M1 mAChR Agonists” (ACS Med Chem Lett, 2010)
